The test system of assay [1] is MDA-MB-468 FOXM1 overexpression cells xenografts. Description: MDA-MB-468 FOXM1 overexpression xenograft mouse model. Format: in vivo, nude mice. Particulars: doxycycline diet, 37.5 mg/kg intraperitoneally. An excerpt:
To investigate if PU7-1-mediated effects in TNBC depend on FOXM1, it was first attempted to establish a FOXM1 crispr knockout cell line. Unfortunately, it was not possible to generate the FOXM1 knockout cell line, likely because FOXM1 is an essential gene for cell survival. […] Alternatively, an inducible FOXM1 overexpression cell line was generated in MDA-MB-468 cells (MDA-MB-468 FOXM1 cells). Doxycycline induces high levels of FOXM1 expression in MDA-MB-468 FOXM1 overexpression cells (FIG. 6A). The effects of PU7-1 on cell proliferation were compared in control and doxycycline-treated MDA-MB-468 FOXM1 cells using BrdU incorporation assay. […] Next, the role of FOXM1 in PU7-1-induced tumor suppression was tested. MDA-MB-468 FOXM1 overexpression cells were subcutaneously inoculated into 6-8-week female nude mice fed with doxycycline diet at the dosage of 625 mg/kg to induce exogenous FOXM1 expression. On day 7 after inoculation, mice were randomly separated into two groups. At the endpoint, tumors were dissected, weighed, and photographed. […] For xenograft mouse model, 2×10^6 MDA-MB-468 cells were mixed with Matrigel (Corning, #354248) at a 1:1 ratio (Volume) and injected subcutaneous into 6-8-week-old female nude mice (Charles River, #088). […]

The chains behind the UniProt entries cited, without tags or fusion partners.
UniProt Q93009, whole entry: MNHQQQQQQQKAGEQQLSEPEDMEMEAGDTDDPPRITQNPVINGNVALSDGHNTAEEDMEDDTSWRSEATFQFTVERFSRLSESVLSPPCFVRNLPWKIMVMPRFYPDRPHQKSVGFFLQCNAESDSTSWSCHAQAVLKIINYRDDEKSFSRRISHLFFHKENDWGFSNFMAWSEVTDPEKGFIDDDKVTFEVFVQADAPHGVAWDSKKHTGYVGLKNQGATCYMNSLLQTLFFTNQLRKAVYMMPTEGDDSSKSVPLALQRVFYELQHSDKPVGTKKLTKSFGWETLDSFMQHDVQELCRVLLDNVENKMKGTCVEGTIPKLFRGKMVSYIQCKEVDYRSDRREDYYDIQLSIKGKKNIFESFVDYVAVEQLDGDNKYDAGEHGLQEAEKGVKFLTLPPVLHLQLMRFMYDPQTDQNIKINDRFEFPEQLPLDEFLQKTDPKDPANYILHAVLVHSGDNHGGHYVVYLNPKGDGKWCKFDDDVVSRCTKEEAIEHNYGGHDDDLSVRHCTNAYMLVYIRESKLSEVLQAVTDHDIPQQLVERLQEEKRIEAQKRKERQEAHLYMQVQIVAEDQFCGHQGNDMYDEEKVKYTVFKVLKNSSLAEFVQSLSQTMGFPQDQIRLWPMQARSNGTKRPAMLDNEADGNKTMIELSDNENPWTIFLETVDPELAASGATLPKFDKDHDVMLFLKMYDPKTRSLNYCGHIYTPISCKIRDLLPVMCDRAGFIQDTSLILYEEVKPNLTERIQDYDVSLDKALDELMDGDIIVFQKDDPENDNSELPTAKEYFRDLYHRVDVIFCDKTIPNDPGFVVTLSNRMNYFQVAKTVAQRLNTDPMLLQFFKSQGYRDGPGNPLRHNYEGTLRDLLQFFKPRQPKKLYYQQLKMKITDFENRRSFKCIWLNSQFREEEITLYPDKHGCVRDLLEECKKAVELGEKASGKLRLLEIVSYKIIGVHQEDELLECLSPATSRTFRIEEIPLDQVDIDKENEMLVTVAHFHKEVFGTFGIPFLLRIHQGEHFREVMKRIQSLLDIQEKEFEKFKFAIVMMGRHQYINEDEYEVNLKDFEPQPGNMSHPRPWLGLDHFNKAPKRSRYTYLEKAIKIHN

For assay [2], the system named is USPs including USP47. Description: Western blot selectivity over other USPs in CAL33 cells. The format is cell-based, human. Particulars: CAL33, 10 μM, 72 h. The method, then: The expression of USP proteins was detected by immunoblotting. […] Quantitative proteomics analysis were then performed. The volcano plot represents all deferentially expressed genes in DMSO control versus PU7-1.
Lastly, because of the high homology in USP protein family, the selectivity of PU7-1 against potential off-target effects was studied. Western blot analysis of several USPs including USP47, the closest homolog of USP7, were performed in CAL33 cells treated with 10 μM of PU7-1 for 72 h. […] To further investigate the selectivity of PU7-1 proteome-wide, mass spectrometry-based quantitative proteomic analysis was performed in human lung cancer A549 cells treated with or without 2.5 μM of PU7-1 for 72 h. […] In contrast, there was no measurable decrease in the protein levels of the other 29 deubiquitinases (FIG. 3J). These findings imply that PU7-1 is an effective and selective PROTAC degrader for the USP7 protein.
A general note: In western blotting, separated proteins are transferred to a membrane and probed.

Assay [3] deals with MDA-MB-468 xenografts. Description: MDA-MB-468 xenograft mouse model. Particulars: 37.5 mg/kg intraperitoneally. The method, then:
Given the high expression of FOXM1 in triple-negative breast cancer, the effects of the USP7 degrader PU7-1 were next investigated in TNBC cells. First, three TNBC cell lines MDA-MB-468, MDA-MB-231 and BT549 were treated with 10 μM of PU7-1 for 96 h. The protein levels of FOXM1 were determined by Western blot. […] Next, the effects of PU7-1 were examined on TNBC cell proliferation. MDA-MB468 and BT549 were incubated in the complete growth medium with or without 10 μM of PU7-1 for two weeks. Colonies were stained by crystal violet dye that stains nucleic acids and proteins and is used to reflect the cell number. […] Furthermore, the dye bound to the cells was solubilized with 30% acetic acid and measured by the absorbance at 600 nm. The viability of PU7-1-treated cells is about 20% of the control cells in MDA-MB-468 or 30% of the control cells in BT549 (FIG. 5C). […] The IC50 of PU7-1 in TNBC cells were then determined using a luminescent cell viability assay. […] Lastly, the xenograft mouse model was utilized to investigate the in vivo efficacy of PU7-1 in TNBC. Two million of MDA-MB-468 cells were subcutaneously inoculated into 6-8-week female nude mice. PU7-1 was intraperitoneally administrated at the dosage of 37.5 mg/kg daily for 3 weeks, 6 days per week (FIG. 5E). At the endpoint, tumors were dissected, weighed, and photographed. […]

The target of assay [4] is USP7 (Homo sapiens, UniProt Q93009). In words: USP7 protein half-life (cycloheximide chase) in CAL33 cells. Particulars: CAL33, 10 μM 48 h then cycloheximide; without treatment over 24 h. The method, then: USP7 protein levels were detected by immunoblots. […] USP7 protein levels were measured by immunoblots. […] USP7 protein levels were detected by immunoblots, then quantified by ImageJ after normalized to internal control β-actin. Half maximal degradation concentration (DC50) was calculated by Graphpad Prism.
To specifically degrade USP7, a set of 66 PROTAC compounds were designed and synthesized that contain an USP7 specific binding moiety XL177A and an E3 ubiquitin ligase (CRBN or VHL) binding moiety connected by different linkers. All putative USP7 PROTACs were used to treat CAL33 cells that express high levels of USP7 protein, and then the USP7 protein levels were determined by western blot (FIGS. 10A and 10B). Through initial screening, PU7-1 was identified as a potential USP7 degrader (FIG. 3A and FIG. 10). […] The effect of PU7-1 was also tested in several human cancer cells harboring wild-type p53. […] In addition, to exclude the possibility that PU7-1 affects the USP7 protein levels by regulating its transcription, a quantitative real-time PCR was performed in CAL33 treated with PU7-1 for 72 h. […] In addition, the half-life of USP7 protein was examined in CAL33 cells in the presence or absence of PU7-1 treatment. […] CAL33 were also treated with the different dosage of PU7-1 ranging from 0.0001 to 10 µM for 24 h. […]

`O=C1CCC(N2Cc3c(CCCCCN4CCN(CCC(=O)Nc5ccc6c(=O)n(CC7(O)CCN(C(=O)C(CCCNC(=O)c8ccc9c(Cl)c%10c(nc9c8)CCCC%10)Cc8ccccc8)CC7)cnc6c5)CC4)cccc3C2=O)C(=O)N1` (centres unmarked): in assay [1], the “tumor sizes and weights versus control” value was “no significant difference”. In assay [2], the “USP7 degradation among USPs tested” value is “only protein degraded” and the “protein levels of the other USPs” value is recorded as “no change”. Also, the “USP7, FOXM1 and Ki67 in tumor sections (immunohistochemistry)” value in assay [3] is on record as “dramatically lower levels”. The “USP7 half-life upon treatment” value in assay [4] is given as 15 h.

(Values after patent US20240408094A1, “INHIBITION OF USP7 INDUCES P53-INDEPENDENT TUMOR GROWTH SUPPRESSION IN TRIPLE-NEGATIVE BREAST CANCERS BY DESTABILIZING FOXM1” (The Trustees of Columbia University in the City of New York, priority 2023, published 2024).)
